{
  "source": "ChEMBL document CHEMBL1144006",
  "about": "“Phenylalanine-containing hydroxamic acids as selective inhibitors of class IIb histone deacetylases (HDACs)” (Bioorg Med Chem, 2008)",
  "biological_target": "T1, Protein deacetylase HDAC6 (Homo sapiens, UniProt Q9UBN7)",
  "T1 sequence (Q9UBN7 whole entry)": "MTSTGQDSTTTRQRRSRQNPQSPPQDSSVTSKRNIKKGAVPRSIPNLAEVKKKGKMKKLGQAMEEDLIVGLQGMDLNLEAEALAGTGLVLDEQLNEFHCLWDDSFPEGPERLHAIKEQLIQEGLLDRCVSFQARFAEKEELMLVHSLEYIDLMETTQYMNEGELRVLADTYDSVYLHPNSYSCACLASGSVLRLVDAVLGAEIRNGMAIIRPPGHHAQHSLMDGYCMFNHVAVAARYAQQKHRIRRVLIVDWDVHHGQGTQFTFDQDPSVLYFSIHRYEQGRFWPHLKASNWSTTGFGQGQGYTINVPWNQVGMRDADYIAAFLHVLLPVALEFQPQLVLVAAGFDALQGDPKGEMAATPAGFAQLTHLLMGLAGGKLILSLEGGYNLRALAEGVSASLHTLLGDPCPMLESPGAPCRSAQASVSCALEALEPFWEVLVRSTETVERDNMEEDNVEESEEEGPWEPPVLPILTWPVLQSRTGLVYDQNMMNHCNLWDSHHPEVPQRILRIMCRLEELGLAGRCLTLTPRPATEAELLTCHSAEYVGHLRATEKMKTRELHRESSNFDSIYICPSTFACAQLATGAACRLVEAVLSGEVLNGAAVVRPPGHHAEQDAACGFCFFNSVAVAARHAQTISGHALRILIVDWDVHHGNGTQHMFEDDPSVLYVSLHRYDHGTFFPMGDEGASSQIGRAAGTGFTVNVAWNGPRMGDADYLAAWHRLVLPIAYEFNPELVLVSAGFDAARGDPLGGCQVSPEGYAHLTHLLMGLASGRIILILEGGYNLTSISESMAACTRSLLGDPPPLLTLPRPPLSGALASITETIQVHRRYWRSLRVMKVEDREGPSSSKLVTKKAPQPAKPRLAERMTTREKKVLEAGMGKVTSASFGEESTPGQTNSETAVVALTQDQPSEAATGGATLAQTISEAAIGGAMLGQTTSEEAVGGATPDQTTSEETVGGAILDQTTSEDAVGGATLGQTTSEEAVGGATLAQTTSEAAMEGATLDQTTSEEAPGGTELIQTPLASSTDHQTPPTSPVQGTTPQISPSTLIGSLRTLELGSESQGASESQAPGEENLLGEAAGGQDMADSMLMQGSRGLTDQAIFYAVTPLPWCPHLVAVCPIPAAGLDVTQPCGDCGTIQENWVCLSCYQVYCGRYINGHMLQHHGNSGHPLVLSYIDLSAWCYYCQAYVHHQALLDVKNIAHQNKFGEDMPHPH",
  "assay": "Inhibition of FLAG-tagged HDAC6 expressed in human 293T cells",
  "format": "cell-based",
  "in_short": "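FLAG-HDAC1 or FLAG-HDAC6 was immunoprecipitated with M2 agarose from lysates of overexpressing 293T cells, washed in enzyme buffer and diluted 1:10. Bead suspension, inhibitor and unselective fluorogenic substrate ZMAL were incubated at 37 C for 180 min. The reaction was stopped with TSA/borate pH 9.5/NDA and read at ex 330/em 390 nm. IC50 came from a dilution series against 0% and 100% (TSA) inhibition standards. Selectivity is the ratio of HDAC1 to HDAC6 IC50.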",
  "data": [
    {"smiles": "COC(=O)[C@H](Cc1ccc(Br)cc1)NC(=O)CCCCCCC(=O)NO", "values": [
      {"measurement": "IC50", "result": 1.69, "unit": "µM"}
    ]}
  ]
}
